# Values quoted from earlier work, collected in patent US20150119272A1, “DOSE-RESPONSE MEDICAL OUTCOME MODEL PREDICTOR SYSTEM AND METHOD” (ROYAL COLLEGE OF SURGEONS IN IRELAND, priority 2012, published 2015).
# By UniProt entry, the sequences of proteins in these tests, tags left out.
# UniProt Q07820, whole entry, species assumed: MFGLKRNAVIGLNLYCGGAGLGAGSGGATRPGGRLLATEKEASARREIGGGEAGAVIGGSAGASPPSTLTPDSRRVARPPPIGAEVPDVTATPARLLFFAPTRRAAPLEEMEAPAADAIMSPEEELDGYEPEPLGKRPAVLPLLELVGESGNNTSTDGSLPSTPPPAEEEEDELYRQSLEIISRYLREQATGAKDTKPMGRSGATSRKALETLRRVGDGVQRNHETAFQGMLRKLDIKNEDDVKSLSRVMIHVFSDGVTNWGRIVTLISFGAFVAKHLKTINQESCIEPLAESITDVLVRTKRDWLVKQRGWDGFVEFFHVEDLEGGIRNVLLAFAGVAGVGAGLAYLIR
# Biological target: Mcl-1 (Homo sapiens, UniProt Q07820)
# Conditions: binding to Mcl-1; taken from literature (Lessene et al. 2008)
smiles,measurement,value
CN(C)CC[C@H](CSc1ccccc1)Nc1ccc(S(=O)(=O)NC(=O)c2ccc(N3CCN(Cc4ccccc4-c4ccc(Cl)cc4)CC3)cc2)cc1[N+](=O)[O-] [ABT-737],Kd,1 µM
